{"sequences": {"note": "Chains of the proteins cited; added tags and fusions are not shown.", "UniProt P16581, whole entry": "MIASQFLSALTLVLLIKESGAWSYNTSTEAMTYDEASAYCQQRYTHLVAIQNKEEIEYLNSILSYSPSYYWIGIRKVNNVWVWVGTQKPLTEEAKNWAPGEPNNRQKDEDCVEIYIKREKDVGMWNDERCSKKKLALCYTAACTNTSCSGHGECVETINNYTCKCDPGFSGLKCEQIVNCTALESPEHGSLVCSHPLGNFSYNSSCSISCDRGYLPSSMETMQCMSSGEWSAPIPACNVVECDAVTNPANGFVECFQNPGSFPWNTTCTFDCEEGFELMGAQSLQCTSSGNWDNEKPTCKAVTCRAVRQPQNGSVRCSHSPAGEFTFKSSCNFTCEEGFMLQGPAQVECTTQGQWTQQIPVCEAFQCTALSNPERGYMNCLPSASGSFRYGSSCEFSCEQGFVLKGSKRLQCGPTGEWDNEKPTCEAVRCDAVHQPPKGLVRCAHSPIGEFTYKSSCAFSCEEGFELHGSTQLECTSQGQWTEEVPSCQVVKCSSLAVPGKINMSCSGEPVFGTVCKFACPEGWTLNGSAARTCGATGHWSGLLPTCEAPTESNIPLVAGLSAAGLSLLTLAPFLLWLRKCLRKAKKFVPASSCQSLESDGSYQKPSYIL"}, "source": "PubChem BioAssay AID686992", "about": "(Broad Institute, 2013)", "note": "The entries are a selection whose mix differs from that of the whole data set. Some salts or complexes appear as unconnected parts, following the source record. The source made the active and inactive calls.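 The calls were made as follows: active = mean E-selectin-positive cell signal at least 10% of the positive control, reached in at least 60% of replicates, without over 20% cell loss; inconclusive = no rule given, readout overlaps actives, possibly toxicity-flagged; inactive = the rest, including those meeting only one limit.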", "data": [{"molecular_target": "E-selectin (Homo sapiens) (UniProt P16581)", "assay": "E-selectin induction in HUVECs, primary screen, imaging, HUVEC, immunofluorescence imaging, single point (AID 686992);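 also: signal is the percent of cells scored E-selectin positive by PE staining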", "conditions": "at 7.58 µM, hits give high values, normalized: neutral wells 0, TNF-alpha wells 100", "in_short": "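assay system = HUVEC, human umbilical vein endothelial cells | input = 3,000 HUVEC seeded per well | medium = EGM-2 growth medium on 0.1% gelatin-coated wells | dosing = one compound dose added by pin transfer | signal = immunofluorescence imaging | read-out basis = % PE-positive cells | control set = TNF-alpha, DMSO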", "values": [{"compound": "CCCCCOc1ccc(NP(C)(=O)Oc2ccc(Cl)cc2Cl)cc1", "note": "(stereo not given)", "activation": "inactive: 0.216%"}, {"compound": "Cc1c([N+](=O)[O-])cc([N+](=O)[O-])c(Br)c1[N+](=O)[O-]", "activation": "inactive: -0.004%"}, {"compound": "CCN(CC)CCCNc1ccccc1[N+](=O)[O-].O=[N+]([O-])c1cc([N+](=O)[O-])c(O)c([N+](=O)[O-])c1", "activation": "inactive: -0.033%"}, {"compound": "COc1ccc2c(c1O)-c1c(O)c(OC)cc3c1[C@H](C2)[N+](C)(C)CC3.O=[N+]([O-])c1cc([N+](=O)[O-])c([O-])c([N+](=O)[O-])c1[O-]", "activation": "inactive: -0.143%"}, {"compound": "O=C(OC1CN2CCC1CC2)c1ccc([N+](=O)[O-])cc1", "note": "(stereo not given)", "activation": "inactive: -4.11%"}, {"compound": "O=C(OCCN1CCN(CCOCc2ccccc2)CC1)C(O)(c1ccccc1)c1ccccc1", "activation": "inactive: -0.082%"}, {"compound": "CC(C)c1ccc(OP(C)(=O)Nc2ccc(SC(F)(F)F)cc2)cc1", "note": "(stereo not given)", "activation": "inactive: 0.176%"}, {"compound": "O=[N+]([O-])c1cc([N+](=O)[O-])c(Nc2ccc(Cl)cc2)c([N+](=O)[O-])c1", "activation": "inactive: -0.587%"}, {"compound": "O=[N+]([O-])c1cc([N+](=O)[O-])c(C(F)(F)F)c([N+](=O)[O-])c1O", "activation": "inactive: -0.033%"}, {"compound": "CP(=O)(Nc1ccc(SC(F)(F)F)cc1)Oc1ccc(F)cc1", "note": "(stereo not given)", "activation": "inactive: 5.18%"}, {"compound": "Cc1c(C(c2ccc3c(c2)OCO3)c2c(C)n(C)n(-c3ccccc3)c2=O)c(=O)n(-c2ccccc2)n1C.O=[N+]([O-])c1cc([N+](=O)[O-])c(O)c([N+](=O)[O-])c1", "activation": "inactive: 5.25%"}, {"compound": "O=[N+]([O-])c1ccc(OP2(=O)COCCO2)cc1", "note": "(stereo not given)", "activation": "inactive: -0.164%"}, {"compound": "Cc1cc(-c2cccc3ccccc23)c(C)cn1.O=[N+]([O-])c1cc([N+](=O)[O-])c(O)c([N+](=O)[O-])c1", "activation": "inactive: -0.147%"}, {"compound": "CN(C)C(=O)c1c([N+](=O)[O-])cc([N+](=O)[O-])cc1[N+](=O)[O-]", "activation": "inactive: 0.376%"}, {"compound": "COc1ccccc1OP(C)(=O)Nc1ccccc1Br", "note": "(stereo not given)", "activation": "inactive: 10.5%"}, {"compound": "CCc1ccc(OP(C)(=O)Nc2cccnc2)cc1", "note": "(stereo not given)", "activation": "inactive: 0.5%"}, {"compound": "O=[N+]([O-])c1cc([N+](=O)[O-])c(Nc2ccccn2)c([N+](=O)[O-])c1", "activation": "inactive: -2.48%"}, {"compound": "COc1ccccc1OP(C)(=O)Nc1ccc(Br)cc1", "note": "(stereo not given)", "activation": "inactive: 0.317%"}, {"compound": "CP(=O)(Nc1ccc(Cl)cc1Cl)Oc1ccccc1", "note": "(stereo not given)", "activation": "inactive: -0.0725%"}, {"compound": "CCCCCCCCCCCCCCCC1C[N+](C)(C)CCOP(C)(=O)O1", "note": "(stereo not given)", "activation": "inactive: -0.283%"}, {"compound": "CP(=O)(OCCOc1ccccc1)OCCOc1ccccc1", "activation": "inactive: 7.18%"}, {"compound": "Cc1cc(C)cc(OP(C)(=O)Nc2cccc(C(F)(F)F)c2)c1", "note": "(stereo not given)", "activation": "inactive: 2.44%"}, {"compound": "O=C1C(O)=C([N+](=O)[O-])C(=O)C(O)=C1[N+](=O)[O-]", "activation": "inactive: 0.141%"}, {"compound": "Cc1cc(C)cc(OP(C)(N)=O)c1", "note": "(stereo not given)", "activation": "inactive: -2.07%"}, {"compound": "CCOC(=O)c1ccc(NP(C)(=O)Oc2ccccc2)cc1", "note": "(stereo not given)", "activation": "inactive: -1.59%"}, {"compound": "O=[N+]([O-])c1ccc2c(c1)C=Nc1ccccc1O2", "activation": "inactive: 0.422%"}, {"compound": "Cc1cccc(C)c1OP(C)(N)=O", "note": "(stereo not given)", "activation": "inactive: -1.24%"}, {"compound": "O=[N+]([O-])c1cc([N+](=O)[O-])c(Nc2cccnc2)c([N+](=O)[O-])c1", "activation": "inactive: -0.214%"}, {"compound": "COc1ccccc1-c1ccccn1.O=[N+]([O-])c1cc([N+](=O)[O-])c(O)c([N+](=O)[O-])c1", "activation": "inactive: 0.222%"}, {"compound": "CCN(CC)CCCOC(=O)C(O)(c1ccccc1)c1ccccc1", "activation": "inactive: -2.99%"}, {"compound": "O=[N+]([O-])c1cc([N+](=O)[O-])c(O)c([N+](=O)[O-])c1.c1ccc(Oc2ccncc2)cc1", "activation": "inactive: -0.181%"}, {"compound": "CP(=O)(Oc1ccccc1)OC(c1ccccc1)C(F)(F)F", "note": "(stereo not given)", "activation": "inactive: -0.368%"}, {"compound": "CP(=O)(Nc1ccc(SC(F)(F)F)cc1)Oc1ccc(Cl)cc1", "note": "(stereo not given)", "activation": "inactive: 0.0295%"}, {"compound": "COc1ccccc1OP(C)(=O)Nc1ccccc1", "note": "(stereo not given)", "activation": "inactive: 0.0365%"}, {"compound": "COc1ccc(-c2ccccn2)cc1.O=[N+]([O-])c1cc([N+](=O)[O-])c(O)c([N+](=O)[O-])c1", "activation": "inactive: 0.086%"}, {"compound": "CP(=O)(Nc1ccc(SC(F)(F)F)cc1)Oc1ccccc1", "note": "(stereo not given)", "activation": "inactive: 0.646%"}, {"compound": "CN1CCCCC1COC(=O)C1(O)c2ccccc2CCc2ccccc21", "note": "(stereo not given)", "activation": "inactive: -0.243%"}, {"compound": "O=[N+]([O-])c1cc([N+](=O)[O-])c(Nc2nnnn2CCO)c([N+](=O)[O-])c1", "activation": "inactive: 0.0155%"}, {"compound": "O=[N+]([O-])c1cc([N+](=O)[O-])c(-c2cnn(-c3ccccc3)c2)c([N+](=O)[O-])c1", "activation": "inactive: 0.0485%"}, {"compound": "CN(Cc1cccnc1)C(=O)COc1ccc(Cl)c(Cl)c1.O=[N+]([O-])c1cc([N+](=O)[O-])c(O)c([N+](=O)[O-])c1", "activation": "inactive: 0.13%"}, {"compound": "CP(=O)(Nc1cccc(Br)c1)Oc1ccccc1", "note": "(stereo not given)", "activation": "inactive: -1.32%"}, {"compound": "CCOC(=O)c1ccc(NP(C)(=O)Oc2cc(C)cc(C)c2)cc1", "note": "(stereo not given)", "activation": "inactive: -1.09%"}, {"compound": "COc1ccccc1OP(C)(=O)Nc1cccc(Br)c1", "note": "(stereo not given)", "activation": "inactive: -0.546%"}, {"compound": "CC1=NCCc2c1[nH]c1ccccc21.O=[N+]([O-])c1cc([N+](=O)[O-])c(O)c([N+](=O)[O-])c1", "activation": "inactive: -0.09%"}, {"compound": "O=C(O)c1cccc(Nc2c([N+](=O)[O-])cc([N+](=O)[O-])cc2[N+](=O)[O-])c1", "activation": "inactive: -0.524%"}]}]}
